Values joined by “and” are separate entries in the source; they are usually repeats but may differ in a detail not shown here. Identical values can stand only once. Like-named read-outs stand apart in the source and are kept apart here.
Assays:
[1] = system: Plato (Large Green Lentil) seeds
AC Polaris seedlings = assay: Emergence of seedlings in the greenhouse (AC Polaris); type: in vivo, Phaseolus vulgaris; conditions: for SUM of seedlings emerged: 20 seeds; for SUM of seedlings emerged / MEAN seedlings emerged per replication: three weeks; for seedlings emerged per replication: greenhouse trial #1, three weeks after planting, five seeds per pot
[2] = system: dry bean (Phaseolus vulgaris L. cv. Othello) seeds; assay: Germination of treated dry bean seeds on King's B agar plates (Othello); type: in vivo; conditions: for SUM of seeds germinated, 10 plates: 50 seeds; for seeds germinated per plate: plates 1-10, 50 seeds in all
[3] = system: dry bean (Phaseolus vulgaris L) seeds, cultivar Othello; assay: Germination of dry bean seeds with aqueous seed coating under high bacterial load; type: in vivo
Experimental: The efficacy of high valency silver ions produced by oxysilver nitrate was evaluated as a seed treatment on diseased dry bean seeds. The oxysilver nitrate was applied as an aqueous seed coating on the germination of dry bean (Phaseolus vulgaris L).
Seeds were placed on blotters in Petri plates, were soaked in an excess of water for 3 days, then drained on day 4. The 3-day period of excess water created a very high bacterial load′ on the germinating seeds and high disease pressure due to pathogenic, saprophytic and soft-rot bacteria. This disease pressure was so extreme that the germination rates for experiments 2-5 were essentially zero due to being overwhelmed by the microbial growth.

[4] = system: Frontier (Kabuli Chickpea) seeds
[5] = system: Myles (Dezi Chickpea) seeds
healthy dry bean seed = assay: Germination of healthy dry bean seed; type: in vivo; conditions: 1%
[6] = system: dry bean (Phaseolus vulgaris L. cv. AC Polaris) seeds; assay: Germination of treated dry bean seeds on King's B agar plates (AC Polaris); type: in vivo; conditions: for SUM of seeds germinated, 10 plates: 50 seeds; for seeds germinated per plate: plates 1-10, 50 seeds in all
[7] = system: dry bean (Phaseolus vulgaris L. cv. Othello) seedlings; assay: Emergence of seedlings in the greenhouse (Othello); type: in vivo; conditions: for seedlings emerged per replication: greenhouse trials #1 and #2, three weeks after planting, five seeds per pot; for MEAN of Trials 1 and 2, seedling emergence / TOTAL of Trials 1 and 2, seedling emergence / SUM of seedlings emerged per trial / MEAN seedlings emerged per replication, per trial: three weeks; for SUM of seedlings emerged per trial / MEAN seedlings emerged per replication, per trial: trial #1 or #2; for SUM of seedlings emerged per trial: 20 seeds

Q: Which results are given for oxysilver nitrate [High valency silver]?
A: seeds germinated out of 50 ([1]; 0.1%, on blotters for 7-days): 46; seeds germinated out of 50 ([1]; 0.1%, on blotters for 14-days): 49; seeds germinated out of 50 ([1]; 0.25%, on blotters for 7-days): 46; seeds germinated out of 50 ([1]; 0.25%, on blotters for 14-days): 48; seeds germinated out of 50 ([1]; 0.5%, on blotters for 7-days): 49; seeds germinated out of 50 ([1]; 0.5%, on blotters for 14-days): 49; seeds germinated out of 50 ([1]; 1%, on blotters for 7-days): 42; seeds germinated out of 50 ([1]; 1%, on blotters for 14-days): 47; SUM of seedlings emerged (AC Polaris seedlings; 0.05% in talc): 18; seedlings emerged per replication (AC Polaris seedlings; 0.05% in talc): 4 and 5; MEAN seedlings emerged per replication (AC Polaris seedlings; 0.05% in talc): 4.5; SUM of seedlings emerged (AC Polaris seedlings; 0.05% in water): 15; seedlings emerged per replication (AC Polaris seedlings; 0.05% in water): 4 and 3; MEAN seedlings emerged per replication (AC Polaris seedlings; 0.05% in water): 3.75; SUM of seedlings emerged (AC Polaris seedlings; 0.1% in talc): 20; seedlings emerged per replication (AC Polaris seedlings; 0.1% in talc): 5; MEAN seedlings emerged per replication (AC Polaris seedlings; 0.1% in talc): 5; SUM of seedlings emerged (AC Polaris seedlings; 0.1% in water): 16; seedlings emerged per replication (AC Polaris seedlings; 0.1% in water): 4 and 5 and 3; MEAN seedlings emerged per replication (AC Polaris seedlings; 0.1% in water): 4; MEAN seeds germinated per plate ([2]; 0.05% in talc): 5; SUM of seeds germinated, 10 plates ([2]; 0.05% in talc): 50; seeds germinated per plate ([2]; 0.05% in talc): 5; MEAN seeds germinated per plate ([2]; 0.05% in water): 5; SUM of seeds germinated, 10 plates ([2]; 0.05% in water): 50; seeds germinated per plate ([2]; 0.05% in water): 5; MEAN seeds germinated per plate ([2]; 0.1% in talc): 4.8; SUM of seeds germinated, 10 plates ([2]; 0.1% in talc): 48; seeds germinated per plate ([2]; 0.1% in talc): 5 and 4; MEAN seeds germinated per plate ([2]; 0.1% in water): 5; SUM of seeds germinated, 10 plates ([2]; 0.1% in water): 50; seeds germinated per plate ([2]; 0.1% in water): 5; phytotoxicity / effect on germination (words) [3]: no phytotoxic effect on germinating seeds; phytotoxicity / effect on germination (words) ([3]; listed as high valency silver): no negative effects on germination; seeds germinated out of 50 ([4]; 0.1%, on blotters for 7-days): 40; seeds germinated out of 50 ([4]; 0.1%, on blotters for 14-days): 45; seeds germinated out of 50 ([4]; 0.25%, on blotters for 7-days): 45; seeds germinated out of 50 ([4]; 0.25%, on blotters for 14-days): 41; seeds germinated out of 50 ([4]; 0.5%, on blotters for 7-days): 48; seeds germinated out of 50 ([4]; 0.5%, on blotters for 14-days): 48; seeds germinated out of 50 ([4]; 1%, on blotters for 7-days): 47; seeds germinated out of 50 ([4]; 1%, on blotters for 14-days): 45; seeds germinated out of 50 ([5]; 0.1%, on blotters for 7-days): 47; seeds germinated out of 50 ([5]; 0.1%, on blotters for 14-days): 44; seeds germinated out of 50 ([5]; 0.25%, on blotters for 7-days): 45; seeds germinated out of 50 ([5]; 0.25%, on blotters for 14-days): 46; seeds germinated out of 50 ([5]; 0.5%, on blotters for 7-days): 44; seeds germinated out of 50 ([5]; 0.5%, on blotters for 14-days): 47; seeds germinated out of 50 ([5]; 1%, on blotters for 7-days): 45; seeds germinated out of 50 ([5]; 1%, on blotters for 14-days): 45; Day to 50% germination (healthy dry bean seed): 5.0 days; MEAN seeds germinated per plate ([6]; 0.05% in talc): 4.6; SUM of seeds germinated, 10 plates ([6]; 0.05% in talc): 46; seeds germinated per plate ([6]; 0.05% in talc): 5 and 4 and 3; MEAN seeds germinated per plate ([6]; 0.05% in water): 3.8; SUM of seeds germinated, 10 plates ([6]; 0.05% in water): 38; MEAN seeds germinated per plate ([6]; 0.1% in talc): 4.6; SUM of seeds germinated, 10 plates ([6]; 0.1% in talc): 46; seeds germinated per plate ([6]; 0.1% in talc): 5 and 4; MEAN seeds germinated per plate ([6]; 0.1% in water): 3.8; SUM of seeds germinated, 10 plates ([6]; 0.1% in water): 38; seedlings emerged per replication ([7]; 0.05% in talc): 4 and 5; MEAN of Trials 1 and 2, seedling emergence ([7]; 0.05% in talc): 4.625; TOTAL of Trials 1 and 2, seedling emergence ([7]; 0.05% in talc): 37; SUM of seedlings emerged per trial ([7]; 0.05% in talc): 18 and 19; MEAN seedlings emerged per replication, per trial ([7]; 0.05% in talc): 4.5 and 4.75; seedlings emerged per replication ([7]; 0.05% in water): 4 and 5; MEAN of Trials 1 and 2, seedling emergence ([7]; 0.05% in water): 4.875; TOTAL of Trials 1 and 2, seedling emergence ([7]; 0.05% in water): 39; SUM of seedlings emerged per trial ([7]; 0.05% in water): 19 and 20; MEAN seedlings emerged per replication, per trial ([7]; 0.05% in water): 4.75 and 5; seedlings emerged per replication ([7]; 0.1% in talc): 3 and 5 and 4; MEAN of Trials 1 and 2, seedling emergence ([7]; 0.1% in talc): 4.125; TOTAL of Trials 1 and 2, seedling emergence ([7]; 0.1% in talc): 33; SUM of seedlings emerged per trial ([7]; 0.1% in talc): 16 and 17; MEAN seedlings emerged per replication, per trial ([7]; 0.1% in talc): 4 and 4.25; seedlings emerged per replication ([7]; 0.1% in water): 4 and 3 and 5; MEAN of Trials 1 and 2, seedling emergence ([7]; 0.1% in water): 4.25; TOTAL of Trials 1 and 2, seedling emergence ([7]; 0.1% in water): 34; SUM of seedlings emerged per trial ([7]; 0.1% in water): 15 and 19; MEAN seedlings emerged per replication, per trial ([7]; 0.1% in water): 3.75 and 4.75; seeds germinated out of 50 (Orford (Soybean) seeds; 0.1%, on blotters for 7-days): 7; seeds germinated out of 50 (Orford (Soybean) seeds; 0.1%, on blotters for 14-days): 25; seeds germinated out of 50 (Orford (Soybean) seeds; 0.25%, on blotters for 7-days): 8; seeds germinated out of 50 (Orford (Soybean) seeds; 0.25%, on blotters for 14-days): 27; seeds germinated out of 50 (Orford (Soybean) seeds; 0.5%, on blotters for 7-days): 10; seeds germinated out of 50 (Orford (Soybean) seeds; 0.5%, on blotters for 14-days): 29; seeds germinated out of 50 (Orford (Soybean) seeds; 1%, on blotters for 7-days): 19; seeds germinated out of 50 (Orford (Soybean) seeds; 1%, on blotters for 14-days): 32; effect on germination (Orford (Soybean) seeds; any pulse seed in this experiment (pea, chickpea, lentil, soybean)): no negative effects on germination of any pulse seed; seeds germinated out of 50 (Camry (Green Pea) seeds; 0.1%, on blotters for 7-days): 46; seeds germinated out of 50 (Camry (Green Pea) seeds; 0.1%, on blotters for 14-days): 45; seeds germinated out of 50 (Camry (Green Pea) seeds; 0.25%, on blotters for 7-days): 48; seeds germinated out of 50 (Camry (Green Pea) seeds; 0.25%, on blotters for 14-days): 46; seeds germinated out of 50 (Camry (Green Pea) seeds; 0.5%, on blotters for 7-days): 48; seeds germinated out of 50 (Camry (Green Pea) seeds; 0.5%, on blotters for 14-days): 48; seeds germinated out of 50 (Camry (Green Pea) seeds; 1%, on blotters for 7-days): 47; seeds germinated out of 50 (Camry (Green Pea) seeds; 1%, on blotters for 14-days): 46

Source: US20160106107A1, “Compositions and Methods for Treating Microorganism” (priority 2006, published 2016)
